Several values for one entry are separate records, joined by “and”; a condition that tells them apart may be missing. Equal entries are not always repeated.

This test addresses T1, β sliding clamp (Escherichia coli, UniProt P0A988).
T1 chain: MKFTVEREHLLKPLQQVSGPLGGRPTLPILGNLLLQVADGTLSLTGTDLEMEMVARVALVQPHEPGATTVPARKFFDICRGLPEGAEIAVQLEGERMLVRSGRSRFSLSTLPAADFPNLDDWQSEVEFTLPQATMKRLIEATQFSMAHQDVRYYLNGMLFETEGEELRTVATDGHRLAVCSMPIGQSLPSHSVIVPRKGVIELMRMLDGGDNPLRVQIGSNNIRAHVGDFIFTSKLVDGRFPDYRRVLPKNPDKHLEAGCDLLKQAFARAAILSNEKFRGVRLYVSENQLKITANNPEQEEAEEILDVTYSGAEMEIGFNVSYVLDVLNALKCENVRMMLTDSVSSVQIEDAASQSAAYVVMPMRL
Briefly: pyrene fluorescence intensity titration.

B1: γ clamp loader complex (protein)
chain 1: SYQVLARKWRPQTFADVVGQEHVLTALANGLSLGRIHHAYLFSGTRGVGKTSIARLLAKGLNCETGITATPCGVCDNCREIEQGRFVDLIEIDAASRTKVEDTRDLLDNVQYAPARGRFKVYLIDEVHMLSRHSFNALLKTLEEPPEHVKFLLATTDPQKLPVTILSRCLQFHLKALDVEQIRHQLEHILNEEHIAHEPRALQLLARAAEGSLRDALSLTDQAIASGDGQVSTQAVSAMLGTLDDDQALSLVEAMVEANGERVMALINEAAARGIEWEALLVEMLGLLHRIAMVQLSPAALGNDMAAIELRMRELARTIPPTDIQLYYQTLLIGRKELPYAPDRRMGVEMTLLRALAFHPRMPLPEPEVPRQSFAPVAPTAVMTPTQVPPQPQSAPQQAPTVPLPETTSQVLAARQQLQRVQGATKAKKSEPAAATRARPVNNAALERLASVTDRVQARPVPSALEKAPAKKEAYRWKATTPVMQQKEVVATPKALKKALEHEKTPELAAKLAAEAIERDPWAAQVSQLSLPKLVEQVALNAWKEESDNAVCLHLRSSQRHLNNRGAQQKLAEALSMLKGSTVELTIVEDDNPAVRTPLEWRQAIYEEKLAQARESIIADNNIQTLRRFFDAELDEESIRPI
chain 2: MIRLYPEQLRAQLNEGLRAAYLLLGNDPLLLQESQDAVRQVAAAQGFEEHHTFSIDPNTDWNAIFSLCQAMSLFASRQTLLLLLPENGPNAAINEQLLTLTGLLHDDLLLIVRGNKLSKAQENAAWFTALANRSVQVTCQTPEQAQLPRWVAARAKQLNLELDDAANQVLCYCYEGNLLALAQALERLSLLWPDGKLTLPRVEQAVNDAAHFTPFHWVDALLMGKSKRALHILQQLRLEGSEPVILLRTLQRELLLLVNLKRQSAHTPLRALFDKHRVWQNRRGMMGEALNRLSQTQLRQAVQLLTRTELTLKQDYGQSVWAELEGLSLLLCHKPLADVFIDG
chain 3: MRWYPWLRPDFEKLVASYQAGRGHHALLIQALPGMGDDALIYALSRYLLCQQPQGHKSCGHCRGCQLMQAGTHPDYYTLAPEKGKNTLGVDAVREVTEKLNEHARLGGAKVVWVTDAALLTDAAANALLKTLEEPPAETWFFLATREPERLLATLRSRCRLHYLAPPPEQYAVTWLSREVTMSQDALLAALRLSAGSPGAALALFQGDNWQARETLCQALAYSVPSGDWYSLLAALNHEQAPARLHWLATLLMDALKRHHGAAQVTNVDVPGLVAELANHLSPSRLQAILGDVCHIREQLMSVTGINRELLITDLLLRIEHYLQPGVVLPVPHL
modifications: β E299C-pyrene, ATP
On to B1, for which the Kd is 3.8 nM and 2.7 nM and 2.1 nM.
